Experimental findings from US12233159B2, “Astaxanthin nanoemulsion and manufacturing method thereof” (priority 2021, dated 2025) are described below.

For the data set, the system named is human foreskin fibroblast cells. In words: Cell toxicity by MTT assay. The format is cell-based. Particulars: TPGS over 1 mg/mL, 24 hrs. The method, then: Cell toxicity of the TAP-nanoemulsion was determined by 3-(4,5-Dimethylthiazol-2-yl)-2,5-diphenyltetrazolium bromide (MTT) assay and the human foreskin fibroblast cells were used in this test. The cells were cultured with a density of 8×10^3 cells per well of a 96-well plate. After cultured for 1 day, cultured medium of the cells was replaced by fresh medium containing TPGS, peanut oil or the TAP-nanoemulsion. The cells were than incubated for another 24 hrs and cell viability was determined by MTT assay.
In general terms: Tetrazolium assays rely on reduction of a dye to a coloured formazan, in cell work by metabolically active cells.

For the substance “D-α-tocopherol polyethylene glycol succinate [TPGS]”, the cell viability result is listed as “less than 10%”.
